Laboratory results reported in patent US8916607B2, “Use of piperphentonamine or salts thereof in manufacture of medicaments for treating brain diseases” (Guangzhou Municipal Zhongwei Biotechnology Limited Company, priority 2009, dated 2014).
Read-outs that look alike come from different tables or passages of the source. Marks after values point to notes of the source that are not given here.

Assays:
[1] = test system: local cerebral ischemia of rats; assay: local cerebral ischemia model (MACO): neurobehavioral score and infarction area by TTC staining; settings: for Behavior disorder (points) / Ischemia arae (mm^2): 30 min after operation, 24 h; for Ischemia arae (mm^2): TTC; for Behavior disorder / Ischemia area(mm^2): JBTA 1 mg/kg iv, NGF 250 U, Vit B6 0.2 mg/kg, method as example 6
[2] = test system: local cerebral ischemia of rats; settings: 24 h after MCAO

| Structure (SMILES) | Behavior disorder (points) ([1]; 0.5 mg/kg) | Ischemia arae (mm^2) ([1]; 0.5 mg/kg) | Behavior disorder (points) ([1]; 2.0 mg/kg) | Ischemia arae (mm^2) ([1]; 2.0 mg/kg) | Behavior disorder [1] | Ischemia area(mm^2) [1] | percentage of necrotic neuron (%) cortical neurons ([2]; 0.5 mg/kg) [%] | percentage of necrotic neuron (%) striatum neurons ([2]; 0.5 mg/kg) [%] | percentage of necrotic neuron (%) cortical neurons ([2]; 1.0 mg/kg (nimodipine 1 mg/kg)) [%] | percentage of necrotic neuron (%) striatum neurons ([2]; 1.0 mg/kg (nimodipine 1 mg/kg)) [%] | percentage of necrotic neuron (%) cortical neurons ([2]; 2.0 mg/kg) [%] | percentage of necrotic neuron (%) striatum neurons ([2]; 2.0 mg/kg) [%] |
| --- | --- | --- | --- | --- | --- | --- | --- | --- | --- | --- | --- | --- |
| CN(CCC(=O)/C=C/c1ccc(O)cc1)CCc1ccc2c(c1)OCO2.Cl [piperphentonamine hydrochloride, Piperphentonamine hydrochloride] | 7.59 ± 2.19 | 21.51 ± 7.94* mm^2 | 4.83 ± 2.53 | 13.57 ± 3.68** mm^2 | 7.25 ± 2.83 | 20.64 ± 4.85* mm^2 | 25.5 ± 3.4 | 18.7 ± 3.4 | 14.45 ± 2.55 | 12.75 ± 2.55 | 11.05 ± 1.7 | 9.35 ± 1.7 |
| COCCOC(=O)C1=C(C)NC(C)=C(C(=O)OC(C)C)C1c1cccc([N+](=O)[O-])c1 (stereo not shown) [nimodipine, reference compound] |  |  |  |  | 8.31 ± 1.98 | 25.68 ± 5.99* mm^2 |  |  | 24.65 ± 4.25 | 17.85 ± 4.25 |  |  |
